By EC50 is commonly meant the concentration needed to bring the measured effect to its halfway point.

By UniProt entry, the sequences of proteins in these tests, tags left out. Where a name states a change or a piece, a line headed by the entry shows the natural chain unless it says otherwise.
UniProt P41145: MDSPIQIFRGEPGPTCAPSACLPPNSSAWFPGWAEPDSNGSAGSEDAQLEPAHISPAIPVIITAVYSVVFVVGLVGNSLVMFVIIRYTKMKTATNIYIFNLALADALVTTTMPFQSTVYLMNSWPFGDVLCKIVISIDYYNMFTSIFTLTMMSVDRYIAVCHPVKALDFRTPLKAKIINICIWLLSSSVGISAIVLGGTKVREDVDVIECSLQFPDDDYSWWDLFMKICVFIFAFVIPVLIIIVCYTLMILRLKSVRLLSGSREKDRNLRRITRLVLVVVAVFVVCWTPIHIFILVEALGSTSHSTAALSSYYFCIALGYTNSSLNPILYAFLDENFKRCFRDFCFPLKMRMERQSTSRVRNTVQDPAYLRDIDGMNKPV
UniProt P41143: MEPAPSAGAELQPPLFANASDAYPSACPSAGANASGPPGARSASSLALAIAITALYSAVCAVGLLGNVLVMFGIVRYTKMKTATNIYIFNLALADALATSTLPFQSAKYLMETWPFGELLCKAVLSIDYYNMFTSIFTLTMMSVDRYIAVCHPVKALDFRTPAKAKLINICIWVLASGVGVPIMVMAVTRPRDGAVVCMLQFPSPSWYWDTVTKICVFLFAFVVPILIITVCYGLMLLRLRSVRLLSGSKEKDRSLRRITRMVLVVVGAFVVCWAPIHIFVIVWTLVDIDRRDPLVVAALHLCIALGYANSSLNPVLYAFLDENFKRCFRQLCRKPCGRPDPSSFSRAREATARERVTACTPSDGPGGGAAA
UniProt P41146: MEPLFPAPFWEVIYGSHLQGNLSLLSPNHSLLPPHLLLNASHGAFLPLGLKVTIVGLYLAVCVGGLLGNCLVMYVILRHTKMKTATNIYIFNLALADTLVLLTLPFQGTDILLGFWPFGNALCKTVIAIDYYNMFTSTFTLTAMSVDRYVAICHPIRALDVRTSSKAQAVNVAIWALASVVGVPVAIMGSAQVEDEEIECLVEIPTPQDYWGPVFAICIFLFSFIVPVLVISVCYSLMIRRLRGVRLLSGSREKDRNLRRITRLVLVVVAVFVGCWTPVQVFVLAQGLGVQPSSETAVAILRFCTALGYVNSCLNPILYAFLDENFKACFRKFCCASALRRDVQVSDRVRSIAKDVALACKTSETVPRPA
UniProt P35372: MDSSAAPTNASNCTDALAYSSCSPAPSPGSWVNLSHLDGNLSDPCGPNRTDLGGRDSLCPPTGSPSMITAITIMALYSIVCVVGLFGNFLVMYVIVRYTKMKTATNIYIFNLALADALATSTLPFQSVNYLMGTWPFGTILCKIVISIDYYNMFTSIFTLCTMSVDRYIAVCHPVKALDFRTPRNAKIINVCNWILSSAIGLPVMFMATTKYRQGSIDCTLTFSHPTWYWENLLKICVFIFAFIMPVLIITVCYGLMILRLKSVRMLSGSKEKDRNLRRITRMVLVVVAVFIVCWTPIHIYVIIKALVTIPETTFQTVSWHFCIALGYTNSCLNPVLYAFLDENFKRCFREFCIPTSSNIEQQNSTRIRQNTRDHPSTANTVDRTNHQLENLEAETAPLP

The target in experiment [1] is T1, kappa opioid receptor (Homo sapiens (Human), UniProt P41145). Briefly: In vitro kappa-opioid receptor binding assay ([3H]-U69,593 displacement). The conditions noted are these: read-out: Ki [Average ± Std Deviation] Opioid Receptor Kappa; membranes from recombinant HEK-293 cells.
Another experiment has as its target delta opioid receptor (Homo sapiens (Human), UniProt P41143). As to the kind of experiment: In vitro delta-opioid receptor binding assay ([3H]-Naltrindole displacement). The note with it: read-out: Ki [Average ± Std Deviation] Opioid Receptor Delta; recombinant receptor expressed in CHO-K1 cells.
For experiment [2], the target named is T1, kappa opioid receptor. Briefly: In vitro kappa-opioid receptor [35S]GTPγS functional assay. The experiment is classed as biochemical. The conditions noted are these: mean ± SEM; for EC50: read-out: GTPγS Opioid Receptor Kappa EC50. (In general: GTPγS is a poorly hydrolysed GTP analogue; its binding reports G protein activation.)
In experiment [3] the target is T2, human opioid receptor-like (ORL-1) (Homo sapiens (Human), UniProt P41146). As to the kind of experiment: In vitro ORL-1 receptor binding assay ([3H]-nociceptin displacement). The note with it: read-out: Ki [Average ± Std Deviation] ORL-1; membranes from recombinant HEK-293 cells.
The target in experiment [4] is T2, human opioid receptor-like (ORL-1). As to the kind of experiment: In vitro ORL-1 receptor [35S]GTPγS functional assay. The experiment is classed as biochemical. The note with it: mean ± SEM; for EC50: read-out: GTPγS ORL-1 EC50.
The target of another experiment is μ-opioid receptor (Homo sapiens (Human), UniProt P35372). Briefly: In vitro mu-opioid receptor binding assay ([3H]-diprenorphine displacement). The note with it: read-out: Ki [Average ± Std Deviation] Opioid Receptor Mu.

In the case of “1-(2-(4-((endo)-8-cyclooctyl-8-azabicyclo[3.2.1]octan-3-yl)-3-oxo-3,4-dihydroquinoxalin-2-ylamino)acetyl)pyrrolidine-2-carboxylic acid”, the Ki was 750 nM on kappa opioid receptor [1], above 20000 nM at delta opioid receptor, 140 nM in experiment [3] and 1470 nM on μ-opioid receptor. Also, at kappa opioid receptor [2], the “GTPγS Opioid Receptor Kappa Emax” value amounted to 6.3%. The results for the EC50 (at kappa opioid receptor [2]; in experiment [4]) were 4590 nM and 3860 nM, respectively. The “GTPγS ORL-1 Emax” value in experiment [4] was determined as 73.3 ± 1.7%.
As to “1-(4-((endo)-8-cyclooctyl-8-azabicyclo[3.2.1]octan-3-yl)-3-oxo-3,4-dihydroquinoxalin-2-yl)piperidine-4-carboxylic acid”, the Ki at kappa opioid receptor [1] came to 657 nM; at delta opioid receptor, 4470 nM; in experiment [3], 109 nM; at μ-opioid receptor, 1670 nM. The “GTPγS Opioid Receptor Kappa Emax” value on kappa opioid receptor [2] is given as 0.7 ± 0.9%. The EC50 on kappa opioid receptor [2] was above 100000 nM. Further, the “GTPγS ORL-1 Emax” value in experiment [4] is 74.7 ± 4.5%.
With “1-(4-((endo)-8-cyclooctyl-8-azabicyclo[3.2.1]octan-3-yl)-3-oxo-3,4-dihydroquinoxalin-2-ylamino)cyclohexanecarboxylic acid”, the Ki at kappa opioid receptor [1] was 920 nM; at delta opioid receptor it was above 20000 nM; in experiment [3], 237 nM; on μ-opioid receptor, above 20000 nM. Moreover, the “GTPγS Opioid Receptor Kappa Emax” value at kappa opioid receptor [2] is recorded as 0%. The EC50 is above 20000 nM at kappa opioid receptor [2] and 1770 nM in experiment [4]. Besides, the “GTPγS ORL-1 Emax” value in experiment [4] was found to be 39 ± 1%.
For the substance “2,2′-(2-(4-((endo)-8-cyclooctyl-8-azabicyclo[3.2.1]octan-3-yl)-3-oxo-3,4-dihydroquinoxalin-2-ylamino)ethylazanediyl)diacetic acid”, the Ki is 3320 nM at kappa opioid receptor [1], above 20000 nM at delta opioid receptor, 4.4 nM in experiment [3] and 1080 nM on μ-opioid receptor. In addition, the “GTPγS ORL-1 Emax” value in experiment [4] is on record as 101.3%. The EC50 in experiment [4] was determined as 53.6 nM.
“2-(2-(4-((endo)-8-cyclooctyl-8-azabicyclo[3.2.1]octan-3-yl)-3-oxo-3,4-dihydroquinoxalin-2-ylamino)acetamido)acetic acid”: the Ki on kappa opioid receptor [1] stood at 1490 nM; at delta opioid receptor, 37400 nM; in experiment [3], 60.4 nM; at μ-opioid receptor it was 1990 nM. Further, the “GTPγS ORL-1 Emax” value in experiment [4] stood at 67 ± 1.5%. Besides, the EC50 in experiment [4] came to 956 nM.
As for “2-(2-(4-((endo)-8-cyclooctyl-8-azabicyclo[3.2.1]octan-3-yl)-3-oxo-3,4-dihydroquinoxalin-2-ylamino)ethylamino)-3-hydroxypropanoic acid”, the Ki was 863 nM on kappa opioid receptor [1], above 20000 nM at delta opioid receptor, 10.6 nM in experiment [3] and 2530 nM on μ-opioid receptor. In addition, the “GTPγS Opioid Receptor Kappa Emax” value at kappa opioid receptor [2] was 9.7 ± 1.8%. Besides, the EC50 on kappa opioid receptor [2] was 4840 nM; in experiment [4], 85 nM. Further, the “GTPγS ORL-1 Emax” value in experiment [4] came to 53.7 ± 2.3%.
On to “2-(2-(4-((endo)-8-cyclooctyl-8-azabicyclo[3.2.1]octan-3-yl)-3-oxo-3,4-dihydroquinoxalin-2-ylamino)ethylamino)acetic acid”, for which the Ki at kappa opioid receptor [1] is 707 nM; at delta opioid receptor, above 100000 nM; in experiment [3] it was 20.4 nM; on μ-opioid receptor, 3200 nM. For the same substance, the “GTPγS Opioid Receptor Kappa Emax” value at kappa opioid receptor [2] was 7.7 ± 0.3%. Further, the values for the EC50 (on kappa opioid receptor [2]; in experiment [4]) were 4570 nM and 357 nM, respectively. For the same substance, the “GTPγS ORL-1 Emax” value in experiment [4] is 83%.
“2-(4-(4-((endo)-8-cyclooctyl-8-azabicyclo[3.2.1]octan-3-yl)-3-oxo-3,4-dihydroquinoxalin-2-yl)-2-oxopiperazin-1-yl)acetic acid”: the Ki on kappa opioid receptor [1] came out at 1360 nM; on delta opioid receptor, 2740 nM; in experiment [3], 44.8 nM; on μ-opioid receptor, 1600 nM. In experiment [4], the “GTPγS ORL-1 Emax” value is recorded as 84 ± 1.2%. Moreover, the EC50 in experiment [4] is 1300 nM.
With “2-(4-((endo)-8-cyclooctyl-8-azabicyclo[3.2.1]octan-3-yl)-3-oxo-3,4-dihydroquinoxalin-2-ylamino)acetic acid”, the Ki came to 2840 nM at kappa opioid receptor [1], 12900 nM at delta opioid receptor, 61.4 nM in experiment [3] and 1170 nM at μ-opioid receptor. Also, the “GTPγS ORL-1 Emax” value in experiment [4] came to 55.3 ± 5.8%. In addition, in experiment [4], the EC50 was 400 nM.
As to “2-(5-(4-((endo)-8-cyclooctyl-8-azabicyclo[3.2.1]octan-3-yl)-3-oxo-3,4-dihydroquinoxalin-2-yl)hexahydropyrrolo[3,4-c]pyrrol-2(1H)-yl)acetic acid”, the Ki is 134 nM at kappa opioid receptor [1], above 20000 nM at delta opioid receptor, 15.8 nM in experiment [3] and 2250 nM on μ-opioid receptor. Also, at kappa opioid receptor [2], the “GTPγS Opioid Receptor Kappa Emax” value is recorded as 0.3%. The half-maximal effective concentration (EC50) on kappa opioid receptor [2] is above 20000 nM; in experiment [4], 397 nM. In experiment [4], the “GTPγS ORL-1 Emax” value turned out to be 81 ± 3%.
For the substance “2-(((S)-1-(4-((endo)-8-cyclooctyl-8-azabicyclo[3.2.1]octan-3-yl)-3-oxo-3,4-dihydroquinoxalin-2-yl)pyrrolidin-3-yl)(methyl)amino)acetic acid”, the Ki was 223 nM on kappa opioid receptor [1], 72500 nM on delta opioid receptor, 21.5 nM in experiment [3] and 8930 nM at μ-opioid receptor. Besides, the “GTPγS Opioid Receptor Kappa Emax” value on kappa opioid receptor [2] turned out to be 8.0 ± 1%. In addition, the EC50 was above 20000 nM at kappa opioid receptor [2] and 618 nM in experiment [4]. The “GTPγS ORL-1 Emax” value in experiment [4] came to 73.3 ± 3.7%.
Take “2-((S)-1-(4-((endo)-8-cyclooctyl-8-azabicyclo[3.2.1]octan-3-yl)-3-oxo-3,4-dihydroquinoxalin-2-yl)pyrrolidin-3-ylamino)acetic acid”: the Ki at kappa opioid receptor [1] is 447 nM; on delta opioid receptor, above 20000 nM; in experiment [3] it was 29.9 nM; on μ-opioid receptor, 16900 nM. In addition, at kappa opioid receptor [2], the “GTPγS Opioid Receptor Kappa Emax” value is recorded as 4.3 ± 1.3%. Moreover, the EC50 at kappa opioid receptor [2] is above 20000 nM; in experiment [4], 471 nM. Moreover, in experiment [4], the “GTPγS ORL-1 Emax” value is given as 59 ± 2%.
For the substance “3-amino-1-(4-((endo)-8-cyclooctyl-8-azabicyclo[3.2.1]octan-3-yl)-3-oxo-3,4-dihydroquinoxalin-2-yl)pyrrolidine-3-carboxylic acid”, the Ki at kappa opioid receptor [1] was 429 nM; at delta opioid receptor it was above 20000 nM; in experiment [3], 10.6 nM; at μ-opioid receptor, 2810 nM. Also, the “GTPγS Opioid Receptor Kappa Emax” value at kappa opioid receptor [2] was 6.3 ± 0.9%. In addition, the EC50 was determined as 3210 nM on kappa opioid receptor [2] and 125 nM in experiment [4]. Also, the “GTPγS ORL-1 Emax” value in experiment [4] is 83.3 ± 5.4%.
Turning to “3-oxo-4-((endo)-9-(2,4,4-trimethylpentan-2-yl)-9-azabicyclo[3.3.1]nonan-3-yl)-3,4-dihydroquinoxaline-2-carboxylic acid”, the Ki was 16800 nM at kappa opioid receptor [1], above 20000 nM at delta opioid receptor, 2.8 nM in experiment [3] and above 20000 nM at μ-opioid receptor. The “GTPγS ORL-1 Emax” value in experiment [4] was determined as 105.3 ± 5.7%. Also, in experiment [4], the EC50 stood at 17 nM.
As for “4-(1-cyclooctylpiperidin-4-yl)-3-oxo-3,4-dihydroquinoxaline-2-carboxylate”, the Ki on kappa opioid receptor [1] was found to be 1030 nM; on delta opioid receptor it was 31700 nM; in experiment [3], 111 nM; at μ-opioid receptor it was 7430 nM. Also, the “GTPγS ORL-1 Emax” value in experiment [4] was 65.3 ± 2.6%. In addition, in experiment [4], the EC50 was 964 nM.
Consider “4-((endo)-8-((cis)-4-isopropylcyclohexyl)-8-azabicyclo[3.2.1]octan-3-yl)-3-oxo-3,4-dihydroquinoxaline-2-carboxylic acid”, for which the Ki came to 2060 nM at kappa opioid receptor [1], 68800 nM on delta opioid receptor, 131 nM in experiment [3] and 5300 nM on μ-opioid receptor. In addition, the “GTPγS ORL-1 Emax” value in experiment [4] came out at 67.8 ± 1.9%. Moreover, the EC50 in experiment [4] was found to be 3570 nM.
As to “4-((endo)-9-((exo)-bicyclo[3.3.1]nonan-9-yl)-9-azabicyclo[3.3.1]nonan-3-yl)-3-oxo-3,4-dihydroquinoxaline-2-carboxylic acid”, the Ki at kappa opioid receptor [1] came out at 4470 nM; on delta opioid receptor it was 2140 nM; in experiment [3] it was 8.5 nM; at μ-opioid receptor, 3430 nM. In experiment [4], the “GTPγS ORL-1 Emax” value worked out at 97.5 ± 1.3%. Further, in experiment [4], the 50% effective concentration (EC50) worked out at 106 nM.
Take “4-((endo)-9-cyclooctyl-3-oxa-9-azabicyclo[3.3.1]nonan-7-yl)-3-oxo-3,4-dihydroquinoxaline-2-carboxylic acid”: the Ki at kappa opioid receptor [1] is 6000 nM; on delta opioid receptor it was 533000 nM; in experiment [3], 260 nM; on μ-opioid receptor, 46000 nM. In addition, the “GTPγS ORL-1 Emax” value in experiment [4] is recorded as 95.8 ± 3.6%. The EC50 in experiment [4] was found to be 4250 nM.
With “4-((exo)-8-cyclooctyl-8-azabicyclo[3.2.1]octan-3-yl)-3-oxo-N-(6-oxo-1,6-dihydropyridin-3-yl)-3,4-dihydroquinoxaline-2-carboxamide”, the Ki was 2600 nM on kappa opioid receptor [1], above 100000 nM on delta opioid receptor, 103 nM in experiment [3] and 9840 nM on μ-opioid receptor. Besides, in experiment [4], the “GTPγS ORL-1 Emax” value came out at 115 ± 5%. Besides, the EC50 in experiment [4] stood at 1360 nM.
On to “endo-4-(9-adamantan-1-yl)-9-aza-bicyclo[3.3.1]non-3-yl)-3-oxo-3,4-dihydro -quinoxaline-2-carboxylic acid”, for which the Ki was found to be 5040 nM on kappa opioid receptor [1], 39400 nM on delta opioid receptor, 29.1 nM in experiment [3] and 17200 nM at μ-opioid receptor. Besides, the “GTPγS ORL-1 Emax” value in experiment [4] was 60.0 ± 1.7%. Moreover, the EC50 in experiment [4] came to 1830 nM.

The values are drawn from patent publication US8846929B2, “Substituted-quinoxaline-type piperidine compounds and the uses thereof” (priority 2007, dated 2014).
